Drawing on PubChem BioAssay AID1645886 (National Center for Advancing Translational Sciences (NCATS), 2021), this text covers activity, negative = inhibition for 16 molecules.

Amino acid sequences for entries named in this document (tags omitted). A change or cut given only in a name is not applied to a line headed by its entry.
UniProt Q8WZA2: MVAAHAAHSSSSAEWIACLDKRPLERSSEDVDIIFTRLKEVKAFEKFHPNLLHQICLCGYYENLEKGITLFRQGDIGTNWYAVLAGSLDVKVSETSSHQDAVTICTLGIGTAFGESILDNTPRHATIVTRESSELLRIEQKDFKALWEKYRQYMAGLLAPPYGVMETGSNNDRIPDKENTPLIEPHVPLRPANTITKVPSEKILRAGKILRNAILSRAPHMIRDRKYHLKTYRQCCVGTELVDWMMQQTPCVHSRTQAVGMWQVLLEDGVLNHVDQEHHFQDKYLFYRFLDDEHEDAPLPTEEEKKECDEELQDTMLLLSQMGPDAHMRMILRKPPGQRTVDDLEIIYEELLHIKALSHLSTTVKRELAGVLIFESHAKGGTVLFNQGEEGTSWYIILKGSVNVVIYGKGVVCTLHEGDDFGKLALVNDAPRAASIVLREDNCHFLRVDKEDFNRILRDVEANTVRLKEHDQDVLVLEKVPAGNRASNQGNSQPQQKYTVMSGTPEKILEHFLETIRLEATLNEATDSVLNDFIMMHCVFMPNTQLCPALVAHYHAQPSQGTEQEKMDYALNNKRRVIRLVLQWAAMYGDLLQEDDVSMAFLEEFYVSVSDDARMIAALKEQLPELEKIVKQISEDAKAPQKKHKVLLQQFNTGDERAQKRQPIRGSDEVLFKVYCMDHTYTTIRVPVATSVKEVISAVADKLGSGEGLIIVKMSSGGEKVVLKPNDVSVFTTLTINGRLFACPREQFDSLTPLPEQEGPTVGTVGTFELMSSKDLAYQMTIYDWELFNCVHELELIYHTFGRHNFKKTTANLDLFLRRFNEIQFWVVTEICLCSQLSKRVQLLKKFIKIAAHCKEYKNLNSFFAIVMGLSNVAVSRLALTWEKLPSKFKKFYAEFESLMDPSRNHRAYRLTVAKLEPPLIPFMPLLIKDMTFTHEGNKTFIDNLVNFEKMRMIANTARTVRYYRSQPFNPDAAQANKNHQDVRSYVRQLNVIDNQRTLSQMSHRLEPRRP

Values joined by “and” are separate entries in the source; they are usually repeats but may differ in a detail not shown here. Equal values may be shown once. This is a selection; strong and weak results do not stand in their true shares. Records with an inconclusive call do not appear. Active and inactive are the calls of the source. Calls follow the shape of the dose curve; as a rule, active = well fitted inhibition curve with a large enough effect; inconclusive = small, poorly fitted or top-dose-only effect; inactive = no such curve, though single readings can be large or run the other way.

This experiment concerns the target Rap guanine nucleotide exchange factor 4 (Homo sapiens) (UniProt Q8WZA2). As to the kind of experiment: Validation qHTS for antagonist of cAMP-regulated guanine nucleotide exchange factor 4 (EPAC2). Also: nearly all actives have a fitted effect of over 40% in size. Conditions: EPAC2 Rap1B BODIPY-GDP exchange, fluorescence; at 112 µM (top of the series) unless noted. The text has this:
Principle Investigator: Xiaodong Cheng Ph.D. The University of Texas Medical Branch, […], TX MLPCN Grant: NS066510 In multi-cellular eukaryotic organisms, the effects of cAMP are transduced by two ubiquitously-expressed intracellular cAMP receptors, the classic protein kinase A/cAMP-dependent protein kinase (PKA/cAPK) and the more recently discovered exchange protein directly activated by cAMP/cAMP-regulated guanine nucleotide exchange factor (EPAC/cAMP-GEF). Both PKA and EPAC are ubiquitously expressed in all tissues, and an increase in intracellular cAMP levels will lead to the activation of both PKA and EPAC. Therefore, careful dissections of the individual role and relative contribution of EPAC and PKA within the overall cAMP signaling in various model systems are critical for further elucidating the mechanism of cAMP signaling. To date no EPAC-specific antagonists and agonist, as well as isoform-specific agonists have been reported, and developing EPAC-specific pharmacological probes to determine the physiological functions that EPAC play in the overall cAMP-mediated signaling remains a major challenge within the research field. Furthermore, identified regulators of EPAC may lead to new mechanism-based therapeutic strategies specifically targeting the EPAC / cAMP-signaling components as EPAC has been implicated to play important roles in major human pathological conditions such as diabetes, heart disease, and cancer. This qHTS will be used to screen the Molecular Libraries Small Molecule Repository (MLSMR) as a concentration-titration series using the NCGC unique quantitative screening (qHTS) platform to find activators for EPAC1. In addition, this assay will also be used as a counterscreen for the EPAC2 qHTS. This fluorescent based assay is developed and validated for EPAC1 that measures exchange using EPAC effector Rap1 complex with BODIPY-GDP, a GDP analog with a tethered fluorophores. Activators are identified by monitoring the change in fluorescence signal as the exchanged free BODIPY-GDP has a reduced fluorescence compared to Rap1-bound BODIPY-GDP. Increase in signal (activation) is the desired outcome for the EPAC1 agonist while no activity in this assay is desired for the EPAC2 agonist counterscreen. Reference: [1] de Rooij, J., Zwartkruis, F. J., Verheijen, M. H., Cool, R. H., Nijman, S. M., Wittinghofer, A., and Bos, J.L. (1998) Nature 396, 474-477.
Briefly, three uL of reagents (100 nM EPAC2, 250 nM RAP1B-BODIPY-GDP, 50 uM GDP) were dispensed into a 1536-well Greiner black solid-bottom medium binding assay plate. Controls and test compounds (23 nL) were transferred to the plate via a Kalypsys pin tool equipped with a 1536-pin array. The plates were centrifuged at 1,000 rpm for 15 seconds followed by 5 minute incubation at room temperature. The assay plates were read at 5 minute intervals for 30 minutes in the ViewLux plate reader using 480nm excitation and 540nm emission filters. The results were normalized to the agonist positive control of 6.5 mM cAMP.
For orientation: Quantitative high-throughput screening tests each substance at several concentrations.
Consider `CN(CCCl)Cc1cc(Cl)c(NC2=NCCN2)c(Cl)c1`, for which the activity, negative = inhibition is inactive: 1.69% and inactive: -12.6%.
For `CN(C(=O)Cc1ccc(Cl)c(Cl)c1)[C@@H]1CCCC[C@H]1N1CCCC1`, the activity, negative = inhibition was inactive: -10.9%.
Under `NC(=O)Nc1ccc([As](=O)(O)O)cc1` stands inactive: 6%.
With `CN(C(=O)Cc1ccccc1)[C@@H]1CC[C@]2(CCCO2)C[C@H]1N1CCCC1`, the activity, negative = inhibition is inactive: -23.2%.
Turning to `CN(C(=O)Cc1ccc(Cl)c(Cl)c1)[C@H]1CC[C@@]2(CCCO2)C[C@@H]1N1CCCC1`, the activity, negative = inhibition was inactive: 18.4%.
On to `CN(C(=O)Cc1ccc(Cl)c(Cl)c1)[C@@H]1CC[C@]2(CCCO2)C[C@H]1N1CCCC1`, for which the activity, negative = inhibition is inactive: -11.4%.
`O=[N+]([O-])c1cc([N+](=O)[O-])c2nc[nH]c2c1`: the activity, negative = inhibition was inactive: 7.57%.
As for `CN(C(=O)Cc1ccc(Cl)c(Cl)c1)[C@@H]1CCCC[C@@H]1N1CCCC1`, the activity, negative = inhibition was inactive: -19.5%.
The same measure for `O=C(OC1CN2CCC1CC2)c1ccccc1` (stereo unspecified): inactive: 28.9%; for `CN(C(=O)Cc1ccccc1)[C@H]1CC[C@@]2(CCCO2)C[C@@H]1N1CCCC1`: inactive: 10.6%; for `COc1cccc([N+](=O)[O-])c1[N+](=O)[O-]`: inactive: -10.6%.
Consider `CC(=O)C1=CCCC2CCC1N2` (stereo unspecified), for which the activity, negative = inhibition is inactive: -7.99%.
With `COc1cc([N+](=O)[O-])c([N+](=O)[O-])cc1OC`, the activity, negative = inhibition was inactive: -23.1%.
Under `Cc1cc(C=O)ccc1N(CCCl)CCCl` stands inactive: -0.355%; under `Nc1c(O)cc([N+](=O)[O-])cc1[N+](=O)[O-]`, inactive: -19.6%; under `CCNC(C)Cc1ccc2c(c1)OCO2` (stereo unspecified), inactive: -2.65% [at 239 µM].
